Measured values as given in patent US20150366827A1, “COMPOSITIONS AND METHODS FOR MIXING AND APPLYING MIXED OXIDANT COMPOSITIONS FOR DAIRY ANIMAL TREATMENT” (GEA Farm Technologies, Inc., priority 2009, published 2015).

Assay: Loss of mixed oxidant activity on exposure to additives (iodometric thiosulfate titration)
Type: physicochemical
Parameters: concentration or dose not given beside the values
Details: antimicrobials, 2 days exposure to mixed oxidant
Protocol: The activity of a mixed oxidant system is preferably measured with an iodometric titration by the addition of excess iodide and acid and titration of the resulting iodine (in the form of triiodide) with sodium thiosulfate. This method can measure the various oxidants in the mixture, comprising chlorine.
A teat dip composition is defined as stable when the activity of the mixed oxidant decreases by less than about 25% over a 12 hour to 72 hour period. The Tables 1 through 3, and 5 below show the stability of mixed oxidants when exposed to various additives for 12 hours to 96 hours. […] In each Table 1 through 5, the beginning mixed oxidant titrated at between 3800 ppm to 4100 ppm measured as available chlorine.

alkyl dimethyl amine oxide
% Loss of Activity at (23° C.): 4%
